According to paper PMC3395807 (Journal of Medicinal Chemistry, 2012):

Conditions: 10% Solutol HS15 solution in PBS, shaking at 37 °C for 6 hours

OC[C@@H]1[C@@H](O)[C@H](O)[C@@H](O)CN1CCCCCCOc1cc(F)ccc1F [Compound 3l, (2R,3R,4R,5S)-1-(6-(2,5-Difluorophenoxy)hexyl)-2-(hydroxymethyl)piperidine-3,4,5-triol]
concentration of clear solution: 20000 µM
